Measured values as given in patent US7371773B2, “Breast cancer resistance protein (BCRP) inhibitor” (Kabushiki Kaisha Yakult Honsha, priority 2003, dated 2008).

System: P388/BCRP cell line
Assay: Overcoming anticancer drug resistance in vivo (survival of tumor-implanted mice)
Parameters: species or system CDF1 mice
Conditions: Table 8; compound 100 mg/kg/day + CPT-11 20 mg/kg/day i.p. once a day, 10 administrations

## mono-{4-[(Z)-2-cyano-2-(3,4-dimethoxy-phenyl)-vinyl]-2-methoxy-phenyl} sodium phosphate
  Survival days Mean ± S.D.: 19.0 ± 2.3 days
  T/C: 142%

## mono-{4-[(Z)-2-cyano-2-(3,4-dimethoxy-phenyl)-vinyl]-phenyl} sodium phosphate
  Survival days Mean ± S.D.: 20.2 ± 0.8 days
  T/C: 151%
